Test results as given in PMC11367994, “Deubiquitinase USP10 promotes osteosarcoma autophagy and progression through regulating GSK3β-ULK1 axis” (Cell & Bioscience, 2024).

Molecular target: T1, Flag-USP10-U1 ([…]aa) from HEK293T cells
T1 construct: USP10, […] (Flag-USP10-U1, plasmid from Gene Chem / Gene-Pharma); The results name HEK293FT cells, the legend and methods HEK293T cells; also called FLAG-tagged USP10; source: HEK293T, transfected: purified (pull-down) and in lysate (co-IP)
Assay: pull-down; purified Flag-USP10 incubated with separately purified HA-GSK3β (both from HEK293T cells) at 4 °C with rotation overnight; beads rinsed four times with RIPA buffer; beads probed with anti-Flag antibody
Conditions: both partners purified

binding result: binds
B1: HA-GSK3β-G1 (1-420aa) from HEK293T cells (enzyme, UniProt P49841 1-420, looked up)
chain: MSGRPRTTSFAESCKPVQQPSAFGSMKVSRDKDGSKVTTVVATPGQGPDRPQEVSYTDTKVIGNGSFGVVYQAKLCDSGELVAIKKVLQDKRFKNRELQIMRKLDHCNIVRLRYFFYSSGEKKDEVYLNLVLDYVPETVYRVARHYSRAKQTLPVIYVKLYMYQLFRSLAYIHSFGICHRDIKPQNLLLDPDTAVLKLCDFGSAKQLVRGEPNVSYICSRYYRAPELIFGATDYTSSIDVWSAGCVLAELLLGQPIFPGDSGVDQLVEIIKVLGTPTREQIREMNPNYTEFKFPQIKAHPWTKVFRPRTPPEAIALCSRLLEYTPTARLTPLEACAHSFFDELRDPNVKLPNGRDTPALFNFTTQELSSNPPLATILIPPHARIQAAASTPTNATAASDANTGDRGQTNNAASASASNST
notes: GSK3β, residues 1-420 (HA-GSK3β-G1, plasmid from Gene Chem / Gene-Pharma); The results name HEK293FT cells, the legend and methods HEK293T cells; also called HA-tagged GSK3β; source: HEK293T, transfected: purified (pull-down) and in lysate (co-IP)
